# Data from PubChem BioAssay (NCATS).
# Protein sequences, listed by entry. Tags and fused reporters are not part of them. Residues count along the entry.
# UniProt P27695, whole entry: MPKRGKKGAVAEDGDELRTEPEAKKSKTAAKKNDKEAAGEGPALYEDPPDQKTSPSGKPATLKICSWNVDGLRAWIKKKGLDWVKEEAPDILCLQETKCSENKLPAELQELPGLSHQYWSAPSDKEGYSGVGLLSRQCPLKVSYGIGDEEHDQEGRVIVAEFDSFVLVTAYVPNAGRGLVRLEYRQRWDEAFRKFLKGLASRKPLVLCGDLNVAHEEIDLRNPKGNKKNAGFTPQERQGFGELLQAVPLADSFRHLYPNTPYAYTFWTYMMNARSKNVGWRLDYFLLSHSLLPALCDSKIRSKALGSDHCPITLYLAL
# UniProt P46063, whole entry: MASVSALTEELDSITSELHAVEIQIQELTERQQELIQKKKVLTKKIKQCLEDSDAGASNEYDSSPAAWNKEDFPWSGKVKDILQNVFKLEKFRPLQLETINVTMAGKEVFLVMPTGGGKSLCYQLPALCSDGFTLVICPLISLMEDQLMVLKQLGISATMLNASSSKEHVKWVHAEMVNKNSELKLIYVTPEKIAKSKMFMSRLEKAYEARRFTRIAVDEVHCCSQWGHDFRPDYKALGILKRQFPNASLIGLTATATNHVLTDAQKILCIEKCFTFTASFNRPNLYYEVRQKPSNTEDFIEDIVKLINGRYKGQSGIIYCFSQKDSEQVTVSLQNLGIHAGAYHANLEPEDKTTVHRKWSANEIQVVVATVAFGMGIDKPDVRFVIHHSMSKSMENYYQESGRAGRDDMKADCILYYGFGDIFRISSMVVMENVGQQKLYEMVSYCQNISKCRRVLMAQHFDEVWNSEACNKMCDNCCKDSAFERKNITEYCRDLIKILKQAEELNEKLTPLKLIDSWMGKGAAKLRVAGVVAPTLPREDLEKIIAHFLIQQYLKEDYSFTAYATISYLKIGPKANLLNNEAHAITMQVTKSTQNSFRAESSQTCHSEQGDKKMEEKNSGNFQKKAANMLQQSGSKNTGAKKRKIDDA
# UniProt O75604, whole entry: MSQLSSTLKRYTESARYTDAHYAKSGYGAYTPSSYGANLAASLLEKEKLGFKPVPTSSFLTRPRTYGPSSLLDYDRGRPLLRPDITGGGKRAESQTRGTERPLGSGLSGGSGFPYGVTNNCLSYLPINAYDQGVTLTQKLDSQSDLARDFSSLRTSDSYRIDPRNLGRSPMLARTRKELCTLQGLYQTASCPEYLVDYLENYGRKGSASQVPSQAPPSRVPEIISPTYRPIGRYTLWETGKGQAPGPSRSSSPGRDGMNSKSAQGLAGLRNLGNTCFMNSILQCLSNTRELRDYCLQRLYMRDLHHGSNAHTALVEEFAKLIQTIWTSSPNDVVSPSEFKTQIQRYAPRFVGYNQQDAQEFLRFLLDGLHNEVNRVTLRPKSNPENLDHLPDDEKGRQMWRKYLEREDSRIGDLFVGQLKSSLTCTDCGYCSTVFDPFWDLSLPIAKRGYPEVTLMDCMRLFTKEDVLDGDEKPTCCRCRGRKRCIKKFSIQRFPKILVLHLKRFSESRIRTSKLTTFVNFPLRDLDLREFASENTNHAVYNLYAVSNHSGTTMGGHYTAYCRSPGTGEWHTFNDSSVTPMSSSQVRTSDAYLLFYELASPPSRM
# UniProt P07550, whole entry: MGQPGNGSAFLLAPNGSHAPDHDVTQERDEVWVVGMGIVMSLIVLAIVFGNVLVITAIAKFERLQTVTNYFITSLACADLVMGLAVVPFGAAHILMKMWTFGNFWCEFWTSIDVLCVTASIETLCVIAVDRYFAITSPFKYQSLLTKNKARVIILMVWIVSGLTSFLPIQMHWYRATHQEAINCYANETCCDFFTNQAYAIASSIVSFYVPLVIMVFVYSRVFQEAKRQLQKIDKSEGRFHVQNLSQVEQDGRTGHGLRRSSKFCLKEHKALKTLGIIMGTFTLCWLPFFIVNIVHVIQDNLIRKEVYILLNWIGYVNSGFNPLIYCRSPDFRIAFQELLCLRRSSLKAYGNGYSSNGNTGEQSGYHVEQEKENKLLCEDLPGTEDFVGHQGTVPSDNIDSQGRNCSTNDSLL
# UniProt O89049, whole entry: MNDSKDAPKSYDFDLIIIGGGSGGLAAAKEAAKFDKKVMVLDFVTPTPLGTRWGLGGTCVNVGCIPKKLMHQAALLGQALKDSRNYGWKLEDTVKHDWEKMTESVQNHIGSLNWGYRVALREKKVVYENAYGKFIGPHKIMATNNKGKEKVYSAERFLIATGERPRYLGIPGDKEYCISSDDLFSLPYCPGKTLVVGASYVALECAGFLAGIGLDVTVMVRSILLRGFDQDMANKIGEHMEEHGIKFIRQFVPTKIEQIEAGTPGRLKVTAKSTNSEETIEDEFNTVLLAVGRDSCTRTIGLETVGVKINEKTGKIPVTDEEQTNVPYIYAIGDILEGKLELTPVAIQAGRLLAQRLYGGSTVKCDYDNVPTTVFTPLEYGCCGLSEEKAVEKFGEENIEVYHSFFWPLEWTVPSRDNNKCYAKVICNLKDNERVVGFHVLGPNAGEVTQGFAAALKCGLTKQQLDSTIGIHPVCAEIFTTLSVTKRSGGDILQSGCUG
# UniProt Q99549, whole entry: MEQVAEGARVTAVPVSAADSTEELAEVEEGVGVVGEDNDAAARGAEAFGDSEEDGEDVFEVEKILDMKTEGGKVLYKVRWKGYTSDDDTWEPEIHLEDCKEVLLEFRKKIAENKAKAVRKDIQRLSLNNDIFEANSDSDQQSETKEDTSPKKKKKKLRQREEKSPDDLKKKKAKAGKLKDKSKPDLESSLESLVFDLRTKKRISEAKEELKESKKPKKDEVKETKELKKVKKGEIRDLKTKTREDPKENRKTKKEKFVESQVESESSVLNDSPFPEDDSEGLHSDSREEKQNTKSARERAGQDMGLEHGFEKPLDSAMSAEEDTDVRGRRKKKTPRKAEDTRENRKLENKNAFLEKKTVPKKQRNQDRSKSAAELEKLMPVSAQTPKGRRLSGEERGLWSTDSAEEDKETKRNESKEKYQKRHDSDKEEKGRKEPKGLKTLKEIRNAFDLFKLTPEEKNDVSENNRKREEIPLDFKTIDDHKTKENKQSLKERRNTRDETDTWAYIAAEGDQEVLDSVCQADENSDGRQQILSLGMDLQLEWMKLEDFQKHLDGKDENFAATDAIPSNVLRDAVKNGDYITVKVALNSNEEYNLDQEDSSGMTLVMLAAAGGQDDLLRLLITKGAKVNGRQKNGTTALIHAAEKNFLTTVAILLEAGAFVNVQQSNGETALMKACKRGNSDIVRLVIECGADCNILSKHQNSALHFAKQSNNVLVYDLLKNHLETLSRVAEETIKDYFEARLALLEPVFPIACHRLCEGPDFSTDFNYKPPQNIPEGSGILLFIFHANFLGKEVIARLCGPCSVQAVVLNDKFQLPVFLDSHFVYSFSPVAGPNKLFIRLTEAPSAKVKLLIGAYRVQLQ
# UniProt P83916, whole entry: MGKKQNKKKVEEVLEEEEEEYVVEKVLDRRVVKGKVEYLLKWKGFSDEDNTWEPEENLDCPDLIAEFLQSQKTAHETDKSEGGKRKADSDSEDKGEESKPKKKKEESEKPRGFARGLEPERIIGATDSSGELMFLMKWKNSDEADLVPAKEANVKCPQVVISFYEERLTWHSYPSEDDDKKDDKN
# UniProt Q6LX38, 1-543: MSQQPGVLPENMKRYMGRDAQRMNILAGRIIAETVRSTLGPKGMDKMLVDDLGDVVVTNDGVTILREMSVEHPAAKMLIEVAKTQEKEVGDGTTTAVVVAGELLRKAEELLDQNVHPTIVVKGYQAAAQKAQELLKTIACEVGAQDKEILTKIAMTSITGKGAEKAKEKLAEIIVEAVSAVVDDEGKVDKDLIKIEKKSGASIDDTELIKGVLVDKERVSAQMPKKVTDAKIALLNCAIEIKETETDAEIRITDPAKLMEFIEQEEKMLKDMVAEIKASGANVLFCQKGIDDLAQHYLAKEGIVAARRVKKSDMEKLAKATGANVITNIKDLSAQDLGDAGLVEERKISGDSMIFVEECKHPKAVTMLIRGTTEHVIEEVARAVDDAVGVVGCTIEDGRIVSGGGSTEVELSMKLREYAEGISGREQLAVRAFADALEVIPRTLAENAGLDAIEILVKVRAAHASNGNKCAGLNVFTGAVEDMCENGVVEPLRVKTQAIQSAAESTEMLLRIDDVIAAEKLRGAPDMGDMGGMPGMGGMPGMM
# UniProt Q8NER1, whole entry: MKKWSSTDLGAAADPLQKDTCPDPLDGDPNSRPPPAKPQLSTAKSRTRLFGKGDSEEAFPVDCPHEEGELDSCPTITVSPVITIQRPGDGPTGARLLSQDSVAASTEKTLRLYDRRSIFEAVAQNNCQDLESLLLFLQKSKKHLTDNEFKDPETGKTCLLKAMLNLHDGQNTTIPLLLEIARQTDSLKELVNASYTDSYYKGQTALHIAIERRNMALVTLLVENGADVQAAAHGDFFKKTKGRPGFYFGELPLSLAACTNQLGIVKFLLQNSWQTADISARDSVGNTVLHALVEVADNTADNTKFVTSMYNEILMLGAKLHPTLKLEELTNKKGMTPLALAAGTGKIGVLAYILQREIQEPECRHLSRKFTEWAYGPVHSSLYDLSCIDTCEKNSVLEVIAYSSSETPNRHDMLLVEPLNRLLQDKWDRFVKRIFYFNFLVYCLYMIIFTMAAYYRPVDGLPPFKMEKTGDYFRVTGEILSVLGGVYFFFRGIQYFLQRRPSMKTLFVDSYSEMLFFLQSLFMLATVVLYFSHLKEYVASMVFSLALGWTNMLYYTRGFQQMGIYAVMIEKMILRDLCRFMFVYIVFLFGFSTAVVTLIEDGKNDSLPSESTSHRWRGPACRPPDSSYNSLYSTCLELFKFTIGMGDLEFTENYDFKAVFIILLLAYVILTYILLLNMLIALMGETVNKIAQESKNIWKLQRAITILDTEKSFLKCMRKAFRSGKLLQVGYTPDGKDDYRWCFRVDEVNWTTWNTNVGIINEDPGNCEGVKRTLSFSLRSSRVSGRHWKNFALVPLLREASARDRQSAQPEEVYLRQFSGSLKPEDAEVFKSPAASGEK
# UniProt P21728, whole entry: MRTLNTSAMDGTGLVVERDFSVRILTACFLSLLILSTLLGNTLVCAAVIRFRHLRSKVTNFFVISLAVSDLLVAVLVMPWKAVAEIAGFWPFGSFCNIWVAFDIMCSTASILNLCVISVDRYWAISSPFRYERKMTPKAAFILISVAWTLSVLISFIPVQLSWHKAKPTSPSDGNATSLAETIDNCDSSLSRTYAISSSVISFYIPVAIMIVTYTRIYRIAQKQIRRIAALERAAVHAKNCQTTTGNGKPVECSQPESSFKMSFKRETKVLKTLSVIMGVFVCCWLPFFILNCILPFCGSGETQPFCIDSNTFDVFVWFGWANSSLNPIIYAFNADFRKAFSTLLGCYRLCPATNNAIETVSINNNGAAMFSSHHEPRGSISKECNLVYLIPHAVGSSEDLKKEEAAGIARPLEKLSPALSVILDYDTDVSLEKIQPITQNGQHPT
# Where “and” joins values, the source holds several entries; their conditions need not be identical. Equal entries are not always repeated. The list shows a part of the results, in another mix than the full data. Results filed as inconclusive are left out. Calls of active or inactive are those of the source. Unless noted, calls come from the whole dose curve; as a rule, active = well fitted curve in the direction sought with a large enough effect; inconclusive = small, poorly fitted or top-dose-only effect, or another doubt; inactive = no such curve, though single readings can be large; an effect the other way counts as inactive or inconclusive.
# Experiments:
# [1] = qHTS Assay for Identification of Small Molecule Inducers of Hypoxia Response (AID 2120; active = well fitted curve in the direction sought with a large enough effect in the signal ratio, with a control signal flat, not every such curve was filed as active; the % refers to the signal ratio; note: 0% is about no effect); conditions: hypoxia response reporter cells, beta-lactamase ratio readout; at 104 µM (top of the series)
# Method in brief: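 HRE-bla ME-180 cells in Opti-MEM with 0.5% dialyzed FBS, pre-plated 4-5 h, then compound titration for 17 h at 37 degrees Celsius. CCF4 loaded 2.5 h at room temperature; 460/530 nm ratio gave %Activity and AC50 for induction.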
# [2] = qHTS Assay for Lipid Storage Modulators (AID 1519; calls by dose curve; note: % is set by controls: 0 for no effect and ±100 for the full control effect); conditions: Drosophila S3 cells, BODIPY lipid droplet/cell ratio, laser cytometry, cells loaded with oleic acid; at 57.5 µM (top of the series) unless noted
# [3] = biological target: DNA repair nuclease/redox regulator APEX1 (Homo sapiens) (UniProt P27695); experiment: qHTS Validation Assay for Inhibitors of the Human Apurinic/apyrimidinic Endonuclease 1 (APE1) (AID 1705;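 note: TAMRA fluorescence gain over two minutes as APE1 cuts a quenched THF abasic duplex; % is set by controls: 0 for no effect and ±100 for the full control effect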); conditions: purified APE1 endonuclease activity, fluorescence, titration; at 57.1 µM (top of the series)
# Method in brief: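 qHTS, 1536-well. APE1 + cpd 15 min RT → 50 nM TAMRA/BHQ-2 THF-abasic dsDNA substrate → kinetic fluorescence, 3 reads/60 s; delta(read3−read1) = reaction progress. No-enzyme buffer = negative control.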
# [4] = qHTS Assay for Modulators of Human Peripheral Myelin Protein 22 (PMP22) Expression/Activity (AID 1967; active = well fitted curve in the direction sought with a large enough effect in the signal ratio; the % refers to the signal ratio;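 note: 0% = untreated cells and 100% end not stated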); conditions: Cell-based PMP22 reporter, dual-color luciferase ratio, 0% = compound-free control cells, mouse Pmp22 promoter in mouse Schwann cells; at 115 µM (top of the series)
# Method in brief: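 Luminescence ratio of Pmp22 promoter-driven green luciferase to EF-alpha-driven red luciferase, in engineered mouse MSC80 Schwann cells, served as read-out. Compounds were incubated 24h; untreated cells defined 0% Activity; curves were classified by r2, magnitude and activity.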
# [5] = biological target: ATP-dependent DNA helicase Q1 (Homo sapiens) (UniProt P46063); experiment: qHTS Validation Assay for Inhibitors of RecQ-Like Dna Helicase 1 (RECQ1) (AID 2353); conditions: recombinant RECQ1 helicase DNA unwinding assay; at 25.6 µM (top of the series);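 note: plate controls were DMSO vehicle for no effect and enzyme-free control for full effect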
# Method in brief: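 50 nM RECQ1T1 preincubated 15 min with compound in Tris pH 8.0 buffer with MgCl2, DTT, Tween-20 and 2.5 ug/ml poly(dI-dC); started with 200 nM TAMRA/BHQ-2 forked duplex and 2 mM ATP. Unwinding read as fluorescence (525/598 nm), two reads 2 h apart.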
# [6] = Cytometric Cell-Based qHTS for Inhibitors of the mTORC1 Signaling Pathway in MEF (Tsc2-/-, p53-/-) Cells (AID 2660); conditions: mTORC1 pathway cytometry; at 38.3 µM (top of the series);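 note: percent of cells above a phospho-rpS6 to PI ratio cutoff in each well; plate controls were DMSO for no effect and rapamycin for full effect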
# Method in brief: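 Immunofluorescence qHTS of rpS6 Ser235/236 phosphorylation: MEFs (Tsc2-/-, p53-/-) treated 24 h, 37 C, in DMEM + 10% FBS. Alexa-488 signal normalized to PI count, referenced to rapamycin (7.5 nM) and DMSO; PI cell number recorded for viability.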
# [7] = High Content Imaging Cell-Based qHTS for Inhibitors of the mTORC1 Signaling Pathway in MEF (Tsc2-/-, p53-/-) Cells (AID 2666); conditions: at 38.3 µM (top of the series);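 note: percent of cells scored positive for phospho-rpS6 Ser235/236 immunostaining by imaging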
# Method in brief: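 Read-out: % positive cells per well, with thresholds from highest- and lowest-signal wells, based on phospho-rpS6 (Ser235/236) intensity normalized to Hoechst nuclear stain. Cells: Tsc2-/-, p53-/- MEFs carrying empty vector; compound 24 hrs, 37 degree Celsius.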
# [8] = High Content Imaging Cell-Based qHTS for Inhibitors of the mTORC1 Signaling Pathway in MEF Cells (AID 2667); conditions: at 38.3 µM (top of the series)
# Method in brief: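 MEF (Tsc2-/-, p53-/-, WT Tsc2 re-expressed); cpd 24 h, 37 °C; PFA fix; Alexa-488 anti-p-rpS6 Ser235/236, PI, Hoechst; IN Cell imaging; Hoechst/Alexa-488 intensity ratio; % active cells, thresholds set from rapamycin and DMSO wells.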
# [9] = Cytometry Cell-Based qHTS for Inhibitors of the mTORC1 Signaling Pathway in MEF cells (AID 2668); conditions: mTORC1 pathway readout; at 38.3 µM (top of the series);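 note: Tsc2-/- p53-/- mouse embryonic fibroblasts stably re-expressing wild-type Tsc2; percent cells positive for phospho-rpS6 Ser235/236 relative to propidium iodide stain; plate controls were DMSO wells for no effect and 7.5 nM rapamycin control wells for full effect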
# Method in brief: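 Tsc2-/-, p53-/- MEFs re-expressing WT Tsc2; cpd 24 hrs, 37 degree Celsius; PFA fix, Alexa-488 p-rpS6 (Ser235/236) Ab 2 hrs RT, PI counterstain; Acumen 488nm scan; p-S6/PI ratio → % positive cells; PI count = viability.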
# [10] = Validation screen for small molecules that induce DNA re-replication in MCF 10A normal breast cells (AID 463097); conditions: MCF 10A cells, DNA re-replication phenotype imaging; at 46.1 µM (top of the series); note: 0% is about no effect; nearly all actives have a fitted effect of over 60% in size
# Method in brief: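 Image-based qHTS: normal breast cells are incubated with compound for 48 hr, stained with Hoechst, and scanned for total nuclear fluorescence. Compounds raising the fraction of nuclei with elevated DNA content count as re-replication inducers.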
# [11] = biological target: Ubiquitin carboxyl-terminal hydrolase 2 (Homo sapiens) (UniProt O75604); experiment: qHTS Validation Assay for Inhibitors of Ubiquitin-specific Protease USP2a Using CHOP2 as the Reporter (AID 463106); conditions: USP2a cleavage of CHOP2 reporter, enzymatic; at 38.3 µM (top of the series);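 note: plate controls were DMSO for no effect and full inhibition by NEM for full effect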
# Method in brief: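 USP2 core (10nM final) was preincubated with compound for 30min at RT in 20mM Tris-HCl pH 8.0, 2mM CaCl2, 2mM beta-mercaptoethanol, 0.05% CHAPS. Ub-CHOP2 and reporter substrate (25nM each) were added, and fluorescence (Ex 485/Em 531nm) was read after 60min.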
# [12] = qHTS Validation Assay to Find Inhibitors of Chronic Active B-Cell Receptor Signaling (AID 485345; active = well fitted curve in the direction sought with a large enough effect in the main read-out, with a control signal flat, not every such curve was filed as active;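 note: 0% = untreated basal cells and 100% = 10 µM MG-132 proteasome inhibitor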); conditions: ABC-DLBCL cells, chronic BCR signaling reporter, CBG luciferase; at 46.1 µM (top of the series)
# Method in brief: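 TMD8 ABC-DLBCL cells with dox-inducible green luciferase–IκBα fusion and red native luciferase; compounds 46 uM–3 nM, 4 h at 37C with doxycycline in 0.5% FBS IMDM. Green/red ratio normalized to basal and 10 uM MG-132.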
# [13] = biological target: Beta-2 adrenergic receptor (Homo sapiens) (UniProt P07550); experiment: qHTS validation assay of beta-arrestin-biased ligands of beta2-adrenergic receptor (AID 485366); conditions: cell-based beta-arrestin recruitment to ADRB2, qHTS; at 46.1 µM (top of the series); note: 0% is about no effect
# Method in brief: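 Arrestin-recruitment (Tango) reporter: ligand-bound beta2-AR recruits beta-arrestin, releasing tTA, which upregulates luciferase. Titrations of up to 46 microM incubated 18 hr at 37 degrees C before luminescent readout.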
# [14] = biological target: Thioredoxin reductase 1, cytoplasmic (Rattus norvegicus) (UniProt O89049); experiment: qHTS Assay for Substrates of Mammalian Selenoprotein Thioredoxin Reductase 1 (TrxR1) (AID 488772); conditions: purified TrxR1, NADPH consumption substrate assay; at 57.1 µM (top of the series);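 note: NADPH fluorescence in the first read after selenite addition and not the 8 min delta; 0% is about no effect; a drop in NADPH fluorescence below the no-compound background marks a TrxR1 substrate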
# Method in brief: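 Quantitative HTS in Tris-HCl buffer at pH 7.5 with EDTA and Tween-20, using rat TrxR1, 400 uM NADPH and 400 uM selenite (final). A fall in initial NADPH fluorescence relative to background marked substrate behaviour.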
# [15] = biological target: M-phase phosphoprotein 8 (Homo sapiens) (UniProt Q99549); experiment: qHTS Validation Assay for Inhibitors for MPP8 Chromodomain Interactions with Methylated Histone Tails (AID 488949); conditions: AlphaScreen MPP8 binding to H3K9me3 peptide; note: potency is the fitted concentration of half-maximal effect; nearly all actives have a fitted effect of over 55% in size
# Method in brief: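 50 nM MPP8 + 50 nM b-H3K9me3 peptide, PBS pH 7.4/0.01% Tween-20, 30 min RT; + cpd 30 min RT; + AlphaScreen donor/Ni-chelate acceptor beads 10 ug/mL final, 30 min dark; luminescence read.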
# [16] = biological target: Chromobox protein homolog 1 (Homo sapiens) (UniProt P83916); experiment: qHTS Validation Assay for Inhibitors of HP1-beta Chromodomain Interactions with Methylated Histone Tails (AID 488953); conditions: HP1-beta chromodomain / methylated histone peptide binding assay; note: potency is the fitted concentration of half-maximal effect; nearly all actives have a fitted effect of over 50% in size
# [17] = biological target: Methanococcus maripaludis chaperonin (MmCpn) (UniProt Q6LX38); experiment: High-Throughput Screening for Modulators of Cytosolic Chaperonin Activity: MmCpn Primary Screen (AID 488978); conditions: MmCpn chaperonin refolding activity, biochemical qHTS; at 76.9 µM (top of the series);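 note: 50 nM MmCpn enzyme hydrolysing 30 µM ATP at 37 °C; 0% is about no effect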
# Method in brief: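 Steps: chaperonin 50 nM final; add compound, 5 min RT; start with ATP, 30 uM final; hold 10 min at 37C; add ADP Transcreener HTRF reagent, 5 min; read ex 320, em 590 and 665 nm.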
# [18] = biological target: Transient receptor potential cation channel subfamily V member 1 (Homo sapiens) (UniProt Q8NER1); experiment: HTS Assay for Compounds that Act as Enhancers of the Vanilloid Receptor 1 (AID 488979); conditions: TRPV1-expressing cells, enhancer of channel activity, stimulated with capsaicin at EC20; at 41.7 µM (top of the series); note: 0% is about no effect
# Method in brief: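 TRPV1-expressing cells loaded with Fluo-8 calcium dye; compounds added and calcium influx read kinetically for 3 min (agonist phase), then capsaicin at EC20 added and read 2 min more for enhancement. Fluorescence ex 480/em 520 nm.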
# [19] = biological target: D(1A) dopamine receptor (Homo sapiens) (UniProt P21728); experiment: HTS Assay for Allosteric Agonists of the Human D1 Dopamine Receptor: Primary Screen for Agonists (AID 488981); conditions: D1 receptor-expressing cells, agonist cAMP readout; at 41.8 µM (top of the series); note: 0% is about no effect
# Method in brief: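 Tetracycline-induced HEK293 T-REx cells force-coupled to calcium signalling were incubated overnight at 30 C and dye-loaded at room temperature. Calcium flux over 180 s after compound addition flagged agonists; a further 180 s read after EC20 dopamine flagged potentiators.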
# [20] = biological target: D(1A) dopamine receptor (Homo sapiens) (UniProt P21728); experiment: HTS Assay for Allosteric Agonists of the Human D1 Dopamine Receptor: Primary Screen for Potentiators (AID 488982); conditions: D1 receptor cells, potentiator mode, cAMP signal; at 8.37 µM (top of the series); note: 0% is about no effect
compound,measurement,setting,value
O=[N+]([O-])[O-].[NH4+],activation,[1],inactive: -0.0807%
Cc1ccc([N+](=O)[O-])c([N+](=O)[O-])c1,activation,[1],inactive: 1.26%
Cc1cccc([N+](=O)[O-])c1[N+](=O)[O-],activation,[1],inactive: 1.31%
[NH4+].[O-][Cl+3]([O-])([O-])[O-],activation,[1],inactive: -0.146%
CCC(C)(OO)OOC(C)(CC)OO (stereo unspecified),activation,[1],inactive: 0.0975%
O=[N+]([O-])c1cccc([N+](=O)[O-])c1,activation,[1],inactive: -0.609%
CCN(CCCl)Cc1ccccc1C,"activity change, negative = inhibition",[2],inactive: 6.87%
CCOP(=O)(CC)OCC,activation,[1],inactive: 0.826%
N#[O+].[C-]#N.[C-]#N.[C-]#N.[C-]#N.[C-]#N.[Fe+2].[Na+].[Na+],"activity change, negative = inhibition",[2],inactive: -4.01%
same,"activity change, negative = inhibition",[3],inactive: 2.33%
same,activity change (ratio),[4],inactive: 21.5%
same,"activity change, negative = inhibition",[5],inactive: 3.11%
same,"activity change, negative = inhibition",[6],inactive: 3.04%
same,outcome,[7],inactive
same,outcome,[8],inactive
same,"activity change, negative = inhibition",[9],inactive: -4.09%
same,re-replication induction,[10],inactive: -8.85%
same,"activity, negative = inhibition",[11],inactive: -1.29%
same,activity change,[12],inactive: 1.75%
same,activation,[13],inactive: 0.144%
same,"activity change, negative = NADPH consumption",[14],inactive: -10.9%
same,Potency,[15],active: 10 µM and active: 8.44 µM
same,Potency,[16],active: 35.5 µM
same,"activity change, negative = inhibition",[17],inactive: 0.502%
same,"activity change, positive = enhancement",[18],inactive: -2.64%
same,activation,[19],inactive: -0.74%
same,"activity, positive = potentiation",[20],inactive: -1.02%
Cc1c([N+](=O)[O-])cccc1[N+](=O)[O-],activation,[1],inactive: -0.524%
Cc1ccc([N+](=O)[O-])cc1[N+](=O)[O-],activation,[1],inactive: 0.331%
C/C1=C2N=C(/C=C3N=C(/C(C)=C4\[N-][C@@](C)([C@H]5N=C1[C@@](C)(CCC(=O)NC[C@H](C)OP(=O)([O-])O[C@@H]1[C@H](O)[C@H](n6cnc7cc(C)c(C)cc76)O[C@@H]1CO)[C@@H]5CC(N)=O)[C@](C)(CC(N)=O)[C@H]4CCC(N)=O)[C@@](C)(CC(N)=O)[C@@H]\3CCC(N)=O)C(C)(C)[C@@H]/2CCC(N)=O.[C-]#N.[Co+3],"activity change, negative = inhibition",[2],inactive: 1.76% [at 25.7 µM]
OCCSCCO,"activity change, negative = inhibition",[2],inactive: 3.57%
